{
  "source": "patent US6569404B1",
  "about": "“Phase shift colloids as ultrasound contrast agents” (priority 1993, dated 2003)",
  "origin": "cited, not measured here",
  "details": "Chemical List of low boiling liquids, Example 45; cited from earlier work",
  "data": [
    {"substance": "Carbonyl fluoride", "values": [
      {"measurement": "Boiling Point", "value": "−83.0", "unit": "degrees Celcius"}
    ]}
  ]
}
